# In US9278981B2, “Compounds and compositions for inhibiting the activity of ABL1, ABL2 and BCR-ABL1” (Novartis AG, priority 2012, dated 2016):
# Tested on: Ba/F3-BCR-ABL1-T315I cells
# Assay: cells
# Conditions: Mus musculus, 48 h, read-out: Ba/F3-BCR-ABL1-T315I IC50 [μM]
row,Compound,IC50 [µM]
1,"Cc1ncncc1-c1cc(C(=O)Nc2ccc(OC(F)(F)Cl)cc2)ccc1N1C[C@H](O)[C@@H](O)C1 [Example 297, N-(4-(Chlorodifluoromethoxy)phenyl)-4-((3S,4S)-3,4-dihydroxypyrrolidin-1-yl)-3-(4-methylpyrimidin-5-yl)benzamide]",0.035
2,N#Cc1cncc(-c2cc(C(=O)Nc3ccc(OC(F)(F)Cl)cc3)cnc2N2C[C@@H](O)[C@@H](O)C2)c1 [Example 268],0.093
3,"CC(F)(F)Oc1ccc(NC(=O)c2cnc(N3CC[C@@H](O)C3)c(-c3cncnc3)c2)cc1 [Example 215, (R)—N-(4-(1,1-Difluoroethoxy)phenyl)-6-(3-hydroxypyrrolidin-1-yl)-5-(pyrimidin-5-yl)nicotinamide]",0.554
4,"O=C(Nc1ccc(SC(F)(F)Cl)cc1)c1cnc(N2CC[C@@H](O)C2)c(-c2cncc(F)c2)c1 [Example 218, (R)—N-(4-((Chlorodifluoromethyl)thio)phenyl)-5′-fluoro-2-(3-hydroxypyrrolidin-1-yl)-[3,3′-bipyridine]-5-carboxamide]",0.01
5,"N[C@H]1CN(c2ccc(C(=O)Nc3ccc(OC(F)(F)Cl)cc3)cc2-c2cncc(F)c2)C[C@@H]1O [Example 285, 4-((3S,4S)-3-Amino-4-hydroxypyrrolidin-1-yl)-N-(4-(chlorodifluoromethoxy)phenyl)-3-(5-fluoropyridin-3-yl)benzamide]",0.165
6,"O=C(Nc1ccc(S(F)(F)(F)(F)F)cc1)c1cnc(N2CC[C@@H](O)C2)c(-c2cncnc2)c1 [Example 216, (R)-6-(3-Hydroxypyrrolidin-1-yl)-5-(pyrimidin-5-yl)-N-(4-(pentafluorosulfanyl)phenyl)nicotinamide]",0.169
7,O=C(Nc1ccc(OC(F)(F)Cl)cc1)c1cnc(N2CC[C@@H](CO)[C@@H](O)C2)c(-c2cncnc2)c1 [Example 257],0.038
8,"O=C(Nc1ccc(OC(F)(F)Cl)cc1)c1cnc(N2CC[C@@H](O)C2)c(-c2cncnc2)c1 [Example 170, (R)—N-(4-(Chlorodifluoromethoxy)phenyl)-6-(3-hydroxypyrrolidin-1-yl)-5-(pyrimidin-5-yl)nicotinamide]",0.013
9,"O=C(Nc1ccc(C(F)(F)C(F)(F)F)cc1)c1cnc(N2CC[C@@H](O)C2)c(-c2cncnc2)c1 [Example 208, (R)-6-(3-Hydroxypyrrolidin-1-yl)-N-(4-(perfluoroethyl)phenyl)-5-(pyrimidin-5-yl)nicotinamide]",0.13
